Measurements: US20220362203A1, “METHOD FOR TREATING MOOD DISORDERS” (priority 2019, published 2022)
Structures can show the parent of a compound that is named as a salt.

Columns and labels:
APP/PS1 mice [1] = settings: Aricept 1.0 mg/kg by gavage once a day Monday to Saturday, five weeks
APP/PS1 mice [2] = settings: Aricept 1.0 mg/kg by gavage; one week after the MWM test

## COc1cc2c(cc1OC)C(=O)C(CC1CCN(Cc3ccccc3)CC1)C2 (centres unmarked) [Aricept, donepezil hydrochloride]
APP/PS1 mice [1]
  Performance in acquisition training (MWM): no significant difference from the APP/PS1 mice without treatment
APP/PS1 mice [2]
  Anxiety level (NSF feeding latency): not significantly different from or even higher than the APP/PS1 mice without treatment
